Target: Coagulation factor X (Homo sapiens, UniProt P00742)
Experiment: In vitro inhibition of Coagulation factor X

Amino acid sequences for entries named in this document (tags omitted). Residues count along the entry.
UniProt P00742, 41-179 limits assumed: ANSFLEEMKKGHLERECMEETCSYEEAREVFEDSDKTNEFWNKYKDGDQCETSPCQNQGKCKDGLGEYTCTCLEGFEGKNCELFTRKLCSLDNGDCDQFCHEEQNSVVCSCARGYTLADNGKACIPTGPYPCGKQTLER
UniProt P00742, 235-488 limits assumed: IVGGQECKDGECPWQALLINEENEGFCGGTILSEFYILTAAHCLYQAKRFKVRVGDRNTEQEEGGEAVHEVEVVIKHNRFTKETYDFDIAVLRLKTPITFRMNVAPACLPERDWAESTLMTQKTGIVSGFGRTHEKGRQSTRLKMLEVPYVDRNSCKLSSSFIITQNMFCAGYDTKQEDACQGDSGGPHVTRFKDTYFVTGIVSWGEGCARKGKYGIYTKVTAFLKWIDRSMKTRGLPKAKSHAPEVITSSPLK

Structure (SMILES): N=C(N)c1ccc(CCC(CC(=O)O)c2cccc(C(=N)N)c2)cc1 (stereo unspecified)
- Ki: 1400 nM

Reference: ChEMBL document CHEMBL1131205, “Rational design and synthesis of novel, potent bis-phenylamidine carboxylate factor Xa inhibitors” (J Med Chem, 1998)
